Laboratory results published in patent US20100298377A1, “NOVEL SUBSTITUTED INDAZOLES, THE PREPARATION THEREOF AND USE OF SAME IN THERAPEUTICS” (SANOFI-AVENTIS, priority 2007, published 2010).

Test system: MIA PaCa-2 cells (human pancreatic carcinoma cells)
Assay: Proliferation of MIA PaCa-2 cells, intracellular ATP, CellTiter-Glo test
Format: cell-based
Conditions: 96 hours
Excerpt: b. Study of the Proliferation of Human Tumoral MIA PaCa-2, C-433, LnCaP and MCF7 Cells via Assay of the Intracellular ATP Using the Celltiter-Glo™ Test
The kit CellTiter-Glo™ for measuring cell viability via luminescence ([…]) is a homogeneous method for determining the number of viable cells in culture, based on quantification of the ATP present in the cells, and which indicates the presence of metabolically active cells.
The cell lines used in this test were the following: MIA PaCa-2 cells (human pancreatic carcinoma cells, ATCC, CRL-1420), C-433 cells (human Ewing sarcoma cells, DSMZ, ACC 268), LNCaP clone FGC cells (human prostate carcinoma cells, ATCC, CRL-1740), MCF7 cells (human breast carcinoma cells, ECACC, #86012803). […]
Evaluation of the Cell Viability via Luminescence Measurement: Celltiter-Glo™ Test
On day 1, the cells were inoculated at 1000 (C-433), 2500 (MCF7) and 10000 (LNCaP and MIA PaCa-2) cells per well in black-bottomed 96-well microplates (NUNC fluoronunc, Fisherbioblock 2311K) in 135 μl of whole culture medium and incubated at 37° C., 5% CO2, for 3 to 6 hours. […] The intracellular ATP was quantified by measuring the luminescence in rlu units (relative luminescence units), 96 hours after initiation of the treatment, using a luminescence counter (Wallac). […]
i) the mean±s.e.m. of each series of well replicates was calculated; […]

SMILES: CN1CCCCC1C(NC(=O)Nc1ccc2[nH]nc(C#Cc3cccc(F)c3)c2c1)c1ccccc1 [Ex 22, 1-{3-[(3-Fluorophenyl)ethynyl]-1H-indazol-5-yl}-3-[(1-methylpiperid-2-yl)(phenyl)methyl]urea((S,2S),(R,2R))]
- IC50: 5.9 µM
